Protein sequences, listed by entry. Tags and fused reporters are not part of them.
UniProt P24385, whole entry: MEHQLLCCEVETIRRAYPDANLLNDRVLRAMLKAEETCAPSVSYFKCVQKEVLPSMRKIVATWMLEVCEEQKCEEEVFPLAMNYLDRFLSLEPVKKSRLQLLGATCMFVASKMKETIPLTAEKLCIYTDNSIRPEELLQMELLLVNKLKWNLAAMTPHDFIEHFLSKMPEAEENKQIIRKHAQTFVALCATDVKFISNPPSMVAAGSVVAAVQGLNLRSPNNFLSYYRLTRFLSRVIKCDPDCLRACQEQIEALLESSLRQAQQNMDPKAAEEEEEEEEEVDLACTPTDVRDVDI
UniProt P14635, whole entry: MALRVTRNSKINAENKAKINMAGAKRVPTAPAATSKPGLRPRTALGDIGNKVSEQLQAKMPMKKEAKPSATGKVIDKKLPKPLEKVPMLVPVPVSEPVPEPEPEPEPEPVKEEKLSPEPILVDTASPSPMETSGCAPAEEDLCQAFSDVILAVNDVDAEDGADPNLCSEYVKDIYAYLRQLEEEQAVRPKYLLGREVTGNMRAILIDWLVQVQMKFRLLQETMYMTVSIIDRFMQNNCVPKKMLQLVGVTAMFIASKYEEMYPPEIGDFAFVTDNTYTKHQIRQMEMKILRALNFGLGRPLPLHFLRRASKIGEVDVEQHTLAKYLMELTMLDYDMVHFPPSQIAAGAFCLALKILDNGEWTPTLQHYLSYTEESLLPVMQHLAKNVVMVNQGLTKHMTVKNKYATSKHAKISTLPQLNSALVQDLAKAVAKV
UniProt P20248, whole entry: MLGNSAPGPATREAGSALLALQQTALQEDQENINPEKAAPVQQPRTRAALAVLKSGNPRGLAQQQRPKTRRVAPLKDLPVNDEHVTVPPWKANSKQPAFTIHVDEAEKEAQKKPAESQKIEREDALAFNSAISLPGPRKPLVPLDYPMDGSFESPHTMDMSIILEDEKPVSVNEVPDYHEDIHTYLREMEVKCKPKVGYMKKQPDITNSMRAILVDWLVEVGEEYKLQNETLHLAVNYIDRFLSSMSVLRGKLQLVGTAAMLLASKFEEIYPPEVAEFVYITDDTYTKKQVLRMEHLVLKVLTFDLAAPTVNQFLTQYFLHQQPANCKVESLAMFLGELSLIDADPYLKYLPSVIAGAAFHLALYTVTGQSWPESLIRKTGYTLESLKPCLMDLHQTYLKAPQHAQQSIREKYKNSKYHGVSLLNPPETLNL

According to patent publication US20050153894A1, “p21 peptides” (Cyclacel Limited, priority 1999, published 2005):

Experiments:
CDK4/Cyclin D1 = molecular target: T1, CDK4/Cyclin D1 (Homo sapiens, UniProt P24385); assay: CDK4/Cyclin D1 kinase assay, phosphorylation of GST-Rb; type: biochemical
T1 construct: made in house; host or cells: CDK4: Sf9 insect cells (baculovirus)

CDK1/Cyclin B [1] = molecular target: T2, CDK1/Cyclin B (Homo sapiens, UniProt P14635); assay: CDK1/Cyclin B kinase assay, phosphorylation of Histone 1; type: biochemical
T2 construct: 6xHis; made in house; host or cells: Sf9 insect cells (baculovirus co-expression)
Method: (§1) Histone 1 phosphorylation induced by CDK2/Cyclin E and CDK1/Cyclin B was measured using similar method. The concentration of Histone 1 in the kinase reaction was 1 mg/ml (unless different stated). The kinase reaction was stopped by 75 mM Phosphoric acid (100 μl per well) and the reaction mixture was transferred onto P81 plates. The plates were washed 3 times with 200 μl 75 mM orthophosphoric acid.

CDK1/Cyclin B [2] = molecular target: T2, CDK1/Cyclin B; assay: CDK1/Cyclin B kinase assay, phosphorylation of GST-Rb; type: biochemical
Method: GST-Rb phosphorylation, induced by CDK4/Cyclin D1, CDK2/Cyclin E or CDK1/Cyclin B was determined by incorporation of radio-labeled phosphate in GST-Rb(772-928) using radiolabelled ATP in 96-well format in vitro kinase assay. The phosphorylation reaction mixture (total volume 40 μl) consisted of 50 mM HEPES pH 7.4, 20 mM MgCl2, 5 mM EGTA, 2 mM DTT, 20 mM β-glycerophosphate, 2 mM NaF, 1 mM Na3VO4, Protease Inhibitors Cocktail (Sigma, see above), BSA 0.5 mg/ml, 1 μg purified enzyme complex, 10 μl of GST-Rb-Sepharose beads, 100 μM ATP, 0.2 μCi ^32P-ATP. The reaction was carried out for 30 min at 30° C. at constant shaking. At the end of this period 100 μl of 50 mM HEPES, pH 7.4 and 1 mM ATP were added to each well and the total volume was transferred onto GFC filtered plate. The plate was washed 5 times with 200 μl of 50 mM HEPES, pH 7.4 and 1 mM ATP. To each well were added 50 μl scintillant liquid and the radioactivity of the samples was measured on Scintilation counter (Topcount, HP). The IC50 values of different peptides were calculated using GraFit software.

Cyclin D1 = molecular target: T3, Cyclin D1 (Homo sapiens, UniProt P24385); assay: Competitive Cyclin D1 binding assay (ELISA), immobilised biotinylated p21 (149-159)
T3 construct: made in house

PKCα = molecular target: T4, PKCα (Homo sapiens, UniProt P17252); assay: Protein Kinase C (PKC) α assay, phosphorylation of Histone 3; type: biochemical; conditions: b250: concentrations up to 100 μM
T4 construct: 6xHis; made in house; host or cells: Sf9 insect cells (baculovirus)
Method: PKCα kinase activity was measured by the incorporation of radio-labeled phosphate in Histone 3. The reaction mixture (total volume 65 μl) consist of 50 mM Tris-HCl, 1 mM Calcium acetate, 3 mM DTT, 0.03 mg/ml Phosphatidylserine, 2.4 μg/ml PMA, 0.04% NP40, 12 mM Mg/Cl, purified PKCα-100 ng, Histone 3, 0.2 mg/ml, 100 μM ATP, 0.2 μCi [γ-^32P]-ATP. The reaction was carried over 15 min at 37° C. in microplate shaker and was stopped by adding 10 μl 75 mM orthophosphoric acid and placing the plate on ice. 50 μl of the reaction mixture was transferred onto P81 filterplate and after washing off the free radioactive phosphate (3 times with 200 μl 75 mM orthophosphoric acid per well) 50 μl of scintillation liquid (Microscint 40) were added to each well and the radioactivity was measured on Scintillation counter (Topcount, HP).

Cyclin D1/CDK6 = Cyclin D1/CDK6 (Homo sapiens, UniProt P24385); assay: Cyclin D1/CDK6 kinase inhibition assay; type: biochemical
CDK2/Cyclin E [3] = molecular target: T5, CDK2/Cyclin E (Homo sapiens, UniProt P24864); assay: CDK2/Cyclin E kinase assay, phosphorylation of GST-Rb; type: biochemical
T5 construct: 6xHis; made in house; host or cells: Sf9 insect cells (baculovirus co-expression)

CDK2/Cyclin E [4] = molecular target: T5, CDK2/Cyclin E; assay: CDK2/Cyclin E kinase assay, phosphorylation of Histone 1; type: biochemical
Method: as §1

Cyclin A = Cyclin A (Homo sapiens, UniProt P20248); assay: Cyclin A binding assay, immobilised biotinyl-Ahx-[…]NH2; conditions: truncated peptides, competitive cyclin A binding

| inhibition of CDK4/Cyclin D1 phosphorylation of GST-Rb, in words (CDK4/Cyclin D1) | Kinase Inhibition Cyclin D1/CDK4 % Inhibition (CDK4/Cyclin D1; phosphorylation of pRb) | inhibition of CDK1/cyclin B phosphorylation of histone H1, in words (CDK1/Cyclin B [1]) | inhibition of CDK1/cyclin B phosphorylation of GST-pRb, in words (CDK1/Cyclin B [2]) | competition with Biotin-DFYHSKRRLIF for binding to Cyclin D1, in words (Cyclin D1) | inhibition of PKCα phosphorylation of Histone 3, in words (PKCα) | Kinase Inhibition Cyclin D1/CDK6 % Inhibition (Cyclin D1/CDK6) | IC50 relative to IC50 of p21^WAF1, CDK2-Cyclin E phosphorylation of GST-Rb (CDK2/Cyclin E [3]; fold higher) | inhibition of CDK2/Cyclin E phosphorylation of GST-Rb, in words (CDK2/Cyclin E [3]; listed as p21 (141-160)153A) | inhibition of CDK2/Cyclin E phosphorylation of GST-Rb, in words (CDK2/Cyclin E [3]; listed as p21 (149-160)153A) | inhibition of CDK2/Cyclin E phosphorylation of Histone 1, in words (CDK2/Cyclin E [4]) | inhibition of CDK2/Cyclin E phosphorylation of Histone 1, in words (CDK2/Cyclin E [4]; listed as p21 (141-160)153A) | inhibition of CDK2/Cyclin E phosphorylation of Histone 1, in words (CDK2/Cyclin E [4]; listed as p21 (149-160)153A) | Cyclin A Binding Maximum Inhibition (Cyclin A) | Compound |
| --- | --- | --- | --- | --- | --- | --- | --- | --- | --- | --- | --- | --- | --- | --- |
| highest potency | 82% | not effective | not effective | highest potency | did not inhibit | 100% |  |  |  |  |  |  |  | CC[C@H](C)[C@H](NC(=O)[C@H](CC(C)C)NC(=O)[C@H](CCCNC(=N)N)NC(=O)[C@H](CCCNC(=N)N)NC(=O)[C@H](CCCCN)NC(=O)[C@H](C)NC(=O)[C@@H](N)Cc1c[nH]cn1)C(=O)N[C@@H](Cc1ccccc1)C(N)=O |
|  |  | did not have any significant effect |  |  |  |  | approximately 50 fold | strong inhibitor | specifically inhibit | completely inactive | not | do not inhibit |  | CC[C@H](C)[C@H](NC(=O)[C@H](CC(C)C)NC(=O)[C@H](CCCNC(=N)N)NC(=O)[C@H](CCCNC(=N)N)NC(=O)[C@H](CCCCN)NC(=O)[C@H](C)NC(=O)[C@H](Cc1c[nH]cn1)NC(=O)[C@H](Cc1ccc(O)cc1)NC(=O)[C@H](Cc1ccccc1)NC(=O)[C@@H](N)CC(=O)O)C(=O)N[C@@H](Cc1ccccc1)C(=O)N[C@@H](CO)C(N)=O [p21(149-160)Ser153Ala] |
|  |  |  |  |  |  |  |  |  |  |  |  |  | 100% | RRLIF [compound 33] |

Read-outs that look alike come from different tables or passages of the source.
